Literature values as cited in patent publication US20030125235A1, “Treatment of diseases associated with cytokine production with inhibitors of the tec family of protein tyrosine kinases” (priority 2000, published 2003).

Protein sequences, listed by entry. Tags and fused reporters are not part of them.
UniProt Q06187, whole entry, species assumed: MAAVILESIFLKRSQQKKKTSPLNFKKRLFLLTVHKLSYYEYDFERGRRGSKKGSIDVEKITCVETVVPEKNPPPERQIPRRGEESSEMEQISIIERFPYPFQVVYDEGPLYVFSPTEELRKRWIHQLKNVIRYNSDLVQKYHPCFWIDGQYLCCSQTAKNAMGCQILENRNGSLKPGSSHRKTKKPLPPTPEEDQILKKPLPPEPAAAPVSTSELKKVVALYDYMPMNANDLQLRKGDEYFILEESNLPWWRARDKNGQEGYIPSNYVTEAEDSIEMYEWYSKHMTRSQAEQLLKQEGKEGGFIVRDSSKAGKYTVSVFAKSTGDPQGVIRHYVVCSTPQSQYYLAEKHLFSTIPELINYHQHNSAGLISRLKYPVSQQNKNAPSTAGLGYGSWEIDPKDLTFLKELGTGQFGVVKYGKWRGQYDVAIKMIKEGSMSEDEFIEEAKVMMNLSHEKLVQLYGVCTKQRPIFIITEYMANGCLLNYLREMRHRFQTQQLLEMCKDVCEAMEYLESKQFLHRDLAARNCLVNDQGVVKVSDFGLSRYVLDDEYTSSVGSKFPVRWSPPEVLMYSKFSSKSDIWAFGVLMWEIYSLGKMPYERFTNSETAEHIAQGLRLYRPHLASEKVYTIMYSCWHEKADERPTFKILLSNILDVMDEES

Molecular target: Btk (Homo sapiens, UniProt Q06187)
Details: literature (Kawakami et al. 1999; Mahajan et al. 1999); cited from earlier work

C/C(O)=C(\C#N)C(=O)Nc1cc(Br)ccc1Br [LFM-A13]
inhibition of Btk: specifically inhibit Btk
